From patent publication US5384243A (dated 1995) come the findings set out here.

Assay [1] deals with m1 and m3 mACHR. The settings on record: focus-derived m1 and m3 cells.
Assay [2] concerns m1 and m3 mACHR. The note with it: focus-derived cells; data not shown.

On to `C[N+](C)(C)CCOC(N)=O` [carbachol], for which the “foci on replating in presence of carbachol” value with m1 and m3 mACHR [1] was “foci arose”. For the same compound, the “colonies in soft agar in presence of agonist” value in the assay with m1 and m3 mACHR [2] was “capable of forming large colonies in soft agar”.
